Data: ChEMBL document CHEMBL3751796, “Structure-Based Discovery of Novel Cyclophilin A Inhibitors for the Treatment of Hepatitis C Virus Infections” (J Med Chem, 2015)

Amino acid sequences for entries named in this document (tags omitted).
UniProt P62937, whole entry, looked up: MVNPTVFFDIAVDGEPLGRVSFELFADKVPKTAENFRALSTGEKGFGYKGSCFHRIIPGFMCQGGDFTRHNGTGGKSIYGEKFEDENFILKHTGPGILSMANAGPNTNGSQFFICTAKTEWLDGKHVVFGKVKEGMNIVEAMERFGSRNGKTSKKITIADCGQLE

Target: Peptidyl-prolyl cis-trans isomerase A (Homo sapiens, UniProt P62937)
Experiment: Potency index, ratio of CsA IC50 to compound IC50 for Cyclophilin A (unknown origin)

Ratio IC50: 1.3
Compound: COc1cc(C(C(=O)NC2CCCCC2)N(C(=O)Cc2c[nH]c3ccccc23)c2ccc(C(C)C)cc2)cc(OC)c1OC (stereo unspecified)
